Source: patent US20100204328A1, “Solution and Method to Reduce, Treat and/or Prevent Oxidative Stress and Cell Activation” (priority 2006, published 2010)

Tested on: White blood cells (WBC)
Assay: Inhibition of cell activation/ROS-generation by addition of free radical scavengers (H2DCF-DA fluorescence)
Format: cell-based, human
Settings: WBC preincubated 30-60 minutes, PMA or LPS stimulus, FIG. 15
Description: Phorbol-myristate-acetate (PMA) was used as a very effective cell activation agent to induce ROS formation and other cell activation markers, see FIG. 14. Albumin was used as a macromolecular scavenger as known for high SH content and binding sites for radicals of different chemical species (O2, H2O2, ONOO2, HOCl). Other macromolecules with SH sites could also be applied.
White blood cells (WBC) were isolated from freshly donated human whole blood. This was done by collecting whole blood from healthy donors on Heparin anticoagulation. Leukocytes were isolated out of the whole blood with the help of an isolation gradient (Polymorphprep). Isolated Leukocytes were diluted in PBS or RPMI 1640 cell culture media and a concentration of 2×10^6/ml was chosen. The cells were stored at 37° in 5% CO2. The cells were preincubated with the substances at 37° C. for 30-60 minutes. […] For ROS-measurement a fluorescence dye (dichlorodihydrofluorescein-diacetate, H2DCF-DA) was added at 10 μM final concentration. The cells were incubated with the substance, the fluorescence dye and the activator for 2 hrs and the fluorescence intensity kinetics was measured over time. To compare the result between two substances, the fluorescence intensity at a certain time point, e.g. 30 minutes) was recorded. For comparison the fluorescence at a certain time is shown in the diagram in FIG. 15.

For “albumin: macromolecular scavenger known for high SH content and binding sites for radicals”, the free radical formation was “increasing the albumin concentration doesn't enable further signal reduction”.
